## Binding of CDR-mutated scFvs to a peptide of the spike HR2 region

Data: MIT Lincoln Laboratory AlphaSeq set, Engelhart et al. 2022, doi:10.1038/s41597-022-01779-4, as distributed in FLAb.

Binding partner: SARS-CoV-2 spike HR2 peptide, sequence PDVDLGDISGINAS.

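Phage display of a naive human antibody library on the peptide gave the parent. The library (AAYL52) carries one to three amino acid substitutions per variant, with no insertions or deletions. Affinity was read by AlphaSeq, a pooled yeast mating assay with surface-displayed partners. After mating in shaken culture at 30 °C for 16 h, diploids were selected and their barcode pairs sequenced. Scores were corrected for input abundance and mapped to Kd with protein pairs of known affinity run in the same pool. There are three technical replicates.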

Each scFv is VH, the linker GGGGSGGGGSGGGGS, VL, as in the parent Ab-95, and differs from it in the CDRs of the light chain only.
VH: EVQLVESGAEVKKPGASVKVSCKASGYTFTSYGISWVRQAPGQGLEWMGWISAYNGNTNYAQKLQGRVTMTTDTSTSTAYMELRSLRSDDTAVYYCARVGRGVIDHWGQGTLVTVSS
VL: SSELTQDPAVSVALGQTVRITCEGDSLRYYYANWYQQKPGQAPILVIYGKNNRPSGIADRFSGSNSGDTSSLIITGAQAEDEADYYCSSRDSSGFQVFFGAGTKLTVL

Each variant is given by its three light chain CDRs, as the data file delimits them; those of the parent are EGDSLRYYYAN, GKNNRPS, SSRDSSGFQVF.
Affinities are written as log10 Kd with Kd in nM; a lower number is a better binder.
A mean of the replicates is given; it leaves out those without a signal.
"nd" means that the variant was in the library but no mating with the target was seen in that replicate; the authors take this as a sign of poor binding, and no number exists.

Variant EGDSLRYYYIN / GKNNRPS / SSRDSSGRQMF gave nd, 4.08, nd (controls 3 of 9).
Variant EPDSLRYYYAN / FKNNRPS / SSRDSSGNQVF gave nd, 3.36, nd (controls 7 of 9).
Variant EGDSLRYYYAN / GKNNRPS / SSRPWSGFQVF gave nd, nd, nd (controls 2 of 9).
Variant EGDSLRYYYAN / GKNNRPH / SARDSSDFQVF gave nd, 3.26, nd (controls 2 of 9).
Variant EGDSLRYYYAN / GKNNEPS / SSRDSSIHQVF gave nd, nd, nd (controls 3 of 9).
Variant EGDSLRYYYAN / GKNNRPS / SSRDSRRFQVF gave 2.71, 3.48, 1.87 (mean 2.69; controls 2 of 9).
Variant EGDSLRYYYAN / MKNNRPS / SSRDSSGFQVF gave 4.18, nd, nd (controls 1 of 9).
Variant EGDSLRYYYAN / GKNNIMS / SSRDSSGFEVF gave 2.65, 2.89, 2.15 (mean 2.56; controls 6 of 9).
Variant EGDSLRYYYAN / GKNNRGS / SSRDSSGFQVG gave 2.34, 2.44, 2.25 (mean 2.34; controls 1 of 9).
Variant EGDSLRYYPAN / TKNNRPS / SSADSSGFQVF gave nd, nd, 2.24 (controls 2 of 9).
Variant EGDSLRYYYAN / GKNNRPF / SSEDSSGFQVE gave 2.78, 2.74, 1.19 (mean 2.24; controls 1 of 9).
Variant EGDSLRYYYAQ / GKNNRPS / SDRDSSVFQVF gave nd, nd, nd (controls 1 of 9).
Variant EGDSLRYYYAN / GKNRRPS / SSRDHSGWQVF gave 4.01, 3.14, 3.39 (mean 3.51; controls 3 of 9).
Variant EGDHLRYYYKN / GKNNPPS / SSRDSSGFQVF gave 4.25, nd, nd (controls 3 of 9).
Variant EGDSLRYYYAN / GANNRPS / SGRDSSGSQVF gave 2.16, 2.15, 1.57 (mean 1.96; controls 1 of 9).
Variant EGDSLRYYYSE / GKNNRPS / SSRDSSGFPVF gave nd, 3.87, nd (controls 4 of 9).
Variant EGDGLRYYKAN / GKNNRPS / SSKDSSGFQVF gave 3.65, 3.76, 3.66 (mean 3.69; controls 2 of 9).
Variant EKDSLRYTYAN / GKQNRPS / SSRDSSGFQVF gave 4.21, 3.40, 3.99 (mean 3.87; controls 2 of 9).
Variant ECDSLRYYYAN / GKNNRPN / SSRDSSGFQVF gave 2.53, 2.35, 2.31 (mean 2.40; controls 4 of 9).
Variant EGDSLRYFYPN / GKNNCPS / SSRDSSGFQVF gave nd, 4.38, 3.68 (mean 4.03; controls 5 of 9).
Variant EGDSLRYYYAN / GKPNRPS / SSRDVSWFQVF gave nd, nd, 4.22 (controls 3 of 9).
Variant EGDSLMYYYAN / GKMNRPS / ESRDSSGFQVF gave 4.64, nd, nd (controls 2 of 9).
Variant EGDSLRYYRAD / GKNNRPS / SSRDSSGFQVF gave 3.99, nd, 3.38 (mean 3.69; controls 4 of 9).
Variant EGDSARYYYAN / GKWNRPS / SSRQSSGFQVF gave 4.17, 5.40, 3.63 (mean 4.40; controls 5 of 9).
Variant EGDSLRYYYAN / GKNNVPS / SSRDSSFQQVF gave 3.37, 5.63, nd (mean 4.50; controls 2 of 9).
Variant EGDSLQYYYAN / AKNNRPS / SSRDSSGEQVF gave 4.04, 2.90, 3.46 (mean 3.47; controls 3 of 9).
Variant AGDSLRYYCAN / GKNNHPS / SSRDSSGFQVF gave 2.77, 2.44, 2.79 (mean 2.66; controls 5 of 9).
Variant EGDSLEYYYAN / GKNNRPS / SSRSSSGIQVF gave 4.28, 4.77, 4.33 (mean 4.46; controls 0 of 9).
Variant EGDSLRYYIAN / GKNNRVS / SSRDSSGFQQF gave 4.38, nd, nd (controls 0 of 9).
Variant EYDSLRYYYAN / GKNARPS / SSRDSSGFAVF gave 3.58, 4.11, nd (mean 3.85; controls 5 of 9).
Variant EGDSLRYYLAN / GKNNRPS / SSRLSSGFQVF gave nd, nd, nd (controls 1 of 9).
Variant EGDSLRYYYAN / GKFNRPS / SSRDSSLFQVK gave 3.70, nd, nd (controls 2 of 9).
Variant EGDSLRYYKHN / GKNNRPS / SSRDSSGWQVF gave 5.11, nd, nd (controls 2 of 9).
Variant EMDSLRYRYAN / DKNNRPS / SSRDSSGFQVF gave 1.49, 1.56, 1.29 (mean 1.45; controls 2 of 9).
Variant EGDSLRYYYAN / IKNNRPC / SSRDSSGFQVF gave nd, 5.77, nd (controls 4 of 9).
Variant EGDSLRYWYIN / GKNNRPS / SSRDSSGFQVA gave 5.05, 3.29, nd (mean 4.17; controls 3 of 9).
Variant EGDSRRYYYAN / GKNNRPS / SSRDSSGFWVF gave 3.84, nd, nd (controls 2 of 9).
Variant EGDSLRYYYSN / GKNNRPS / WSRDSSGFLVF gave 3.21, 3.02, 3.28 (mean 3.17; controls 3 of 9).
Variant EGDSLRYYEAN / GKNNRPS / SSRDSSGFQIL gave 1.77, 1.43, 1.43 (mean 1.55; controls 1 of 9).
Variant EGDSYDYYYAN / GKNNRPS / SSRDSSGFQVW gave nd, 3.92, nd (controls 0 of 9).
Variant EIDDLRYYYAN / GKNNRPS / SMRDSSGFQVF gave nd, nd, nd (controls 2 of 9).
Variant EGDSLRYYYAN / GYNNRPS / SKRDSSGFQVG gave 2.70, 3.73, 3.28 (mean 3.24; controls 4 of 9).
Variant EGDSLRYYYAI / GKVSRPS / SSRDSSGFQVF gave 4.40, nd, nd (controls 3 of 9).
Variant EGASLRYYYAN / GYNNRPS / SSFDSSGFQVF gave nd, nd, nd (controls 1 of 9).
Variant EGDSLRYYYAN / GKNNRPS / SSRDTARFQVF gave 2.79, nd, nd (controls 2 of 9).
Variant EGDSLRYYYLN / GKNNRPP / SSRDSSGFQVF gave 3.55, 3.38, 4.06 (mean 3.66; controls 2 of 9).

Excerpt, the first 8 entries:

CDR-L1	CDR-L2	CDR-L3	replicates, log10 nM	mean log10 Kd (nM)	signal with controls
EGDSLRYYYIN	GKNNRPS	SSRDSSGRQMF	nd, 4.08, nd	4.08	3 of 9
EPDSLRYYYAN	FKNNRPS	SSRDSSGNQVF	nd, 3.36, nd	3.36	7 of 9
EGDSLRYYYAN	GKNNRPS	SSRPWSGFQVF	nd, nd, nd	nd	2 of 9
EGDSLRYYYAN	GKNNRPH	SARDSSDFQVF	nd, 3.26, nd	3.26	2 of 9
EGDSLRYYYAN	GKNNEPS	SSRDSSIHQVF	nd, nd, nd	nd	3 of 9
EGDSLRYYYAN	GKNNRPS	SSRDSRRFQVF	2.71, 3.48, 1.87	2.69	2 of 9
EGDSLRYYYAN	MKNNRPS	SSRDSSGFQVF	4.18, nd, nd	4.18	1 of 9
EGDSLRYYYAN	GKNNIMS	SSRDSSGFEVF	2.65, 2.89, 2.15	2.56	6 of 9

Empty control strains, which show no peptide, gave a signal in 28% of pairings with library AAYL52; the median was 3.91 and 95% of these signals were weaker than 2.90. No background was subtracted. Also given: how often the same scFv was detected with the empty control strains.
Parent in this assay: reference entry 2.31, copy in this library 2.25.